Protein sequences, listed by entry. Tags and fused reporters are not part of them.
UniProt Q06124, whole entry: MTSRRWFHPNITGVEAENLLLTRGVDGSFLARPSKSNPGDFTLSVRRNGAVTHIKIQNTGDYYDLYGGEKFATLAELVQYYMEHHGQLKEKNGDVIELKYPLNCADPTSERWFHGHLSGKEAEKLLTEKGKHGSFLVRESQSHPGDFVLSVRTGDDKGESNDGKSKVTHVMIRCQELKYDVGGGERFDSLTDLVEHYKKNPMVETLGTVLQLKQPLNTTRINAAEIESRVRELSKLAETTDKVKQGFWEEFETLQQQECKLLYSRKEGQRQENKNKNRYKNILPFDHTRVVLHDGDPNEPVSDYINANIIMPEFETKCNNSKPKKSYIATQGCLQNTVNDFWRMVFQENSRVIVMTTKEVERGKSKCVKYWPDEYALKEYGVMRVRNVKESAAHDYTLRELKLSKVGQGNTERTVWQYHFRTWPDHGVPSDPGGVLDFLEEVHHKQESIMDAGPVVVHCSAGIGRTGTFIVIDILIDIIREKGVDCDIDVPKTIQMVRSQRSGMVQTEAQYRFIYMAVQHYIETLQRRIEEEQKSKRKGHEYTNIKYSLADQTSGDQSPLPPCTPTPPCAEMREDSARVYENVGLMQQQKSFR

In US10301278B2, “1-(triazin-3-yl/pyridazin-3-yl)-piper(-azine)idine derivatives and compositions therefor for inhibiting the activity of SHP2” (NOVARTIS AG, priority 2014, dated 2019):

Each compound was assayed against SHP2 (Homo sapiens (Human), UniProt Q06124) (assay: SHP2 allosteric inhibition assay (DiFMUP prompt fluorescence)). Settings: 0.5 nM SHP2 activated with 0.5 μM peptide IRS1_pY1172(dPEG8)pY1222; substrate DiFMUP; 25° C.
Format: biochemical

Row | IC50 [nM] | SMILES
1 | 76 | C[C@@]1(CN)CCN(c2cnc(Sc3cccc(Cl)c3Cl)c(N)n2)C[C@@H]1O (relative stereo) [27a]
2 | 97 | CC(N)C1(C)CCN(c2cnc(Sc3cccnc3C(F)(F)F)c(N)n2)CC1 (racemic) [41 P1]

Row | SMILES | IC50 [nM]
3 | C[C@@]1(CN)CCN(c2cnc(Sc3cccnc3C(F)(F)F)c(N)n2)C[C@H]1O (relative stereo) [31a] | 781
